Columns and labels:
[1] = tested on: Human CD34+ cord blood (CB) cells; assay: CD34+ activity assessment (7-day expansion of pre-expanded CD34+ cells, flow cytometry); conditions: concentration at which compound/vehicle ratio of CD34+ cell number is >= 1.5; 7 days, with 35 nM UM0128171; Table 1
Protocol: Human CD34+ cord blood (CB) cells were isolated from fresh units using RosetteSep™ 0034 pre-enrichment cocktail followed by CD34 positive selection using EasySep Kit™ (StemCell Technologies). The cells were then pre-expanded in bulk, by culturing at 37° C. for 6 days in HSC expansion media consisting of StemSpan ACF (StemCell Technologies) supplemented with 100 ng/mL Stem Cell Factor (SCF, Shenandoah), 100 ng/mL FMS-like Tyrosine Kinase 3 Ligand (FLT3L, Shenandoah), 50 ng/mL Thrombopoietin (TPO, Shenandoah), 2 mM GlutaMAX™ (Invitrogen), 10 μg/mL low density lipoproteins (LDL, StemCell Technologies), 10 μg/mL Ciprofloxacin and 35 nM UM0128171. […] Following the pre-expansion, cells were harvested, aliquoted and frozen until use.
For each activity assessment, CD34+ pre-expanded cells (approximately 2000 per well in a 384-well plate) were cultured in HSC expansion media, in the presence of 35 nM UM0128171. Compounds were serially diluted (1/2) in DMSO (10 dilutions per compound) and added to the cells in order to achieve a 1/1000 final dilution. StemRegenin1 (SR1) and/or Compound 1001 were included in all experiments as controls to monitor assay performance. The plate was incubated at 37° C. for 7 days in static conditions (i.e. no shaking and no addition of media). Flow cytometry analysis was performed at the end of the 7-day expansion. Cells were stained with PE-labeled anti-human CD45RA (BD Biosciences) and APC-labeled anti-human CD34 (BD Biosciences) and analyzed using Intellicyt IQue cytometer equipped with ForeCyt software. Gates were drawn around the populations of interest to obtain cell numbers and relative proportions. The EC1.5 value, which is the concentration at which the compound/vehicle ratio is greater or equal to 1.5, was calculated by plotting the CD34+ cell number against concentrations (log-scale) in a 4-PL curve and fitting the curve using IDBS XLfit (set model 251) in Microsoft Excel.

Protein sequences, listed by entry. Tags and fused reporters are not part of them. Residues count along the entry.
UniProt P35869, 11-848 limits assumed: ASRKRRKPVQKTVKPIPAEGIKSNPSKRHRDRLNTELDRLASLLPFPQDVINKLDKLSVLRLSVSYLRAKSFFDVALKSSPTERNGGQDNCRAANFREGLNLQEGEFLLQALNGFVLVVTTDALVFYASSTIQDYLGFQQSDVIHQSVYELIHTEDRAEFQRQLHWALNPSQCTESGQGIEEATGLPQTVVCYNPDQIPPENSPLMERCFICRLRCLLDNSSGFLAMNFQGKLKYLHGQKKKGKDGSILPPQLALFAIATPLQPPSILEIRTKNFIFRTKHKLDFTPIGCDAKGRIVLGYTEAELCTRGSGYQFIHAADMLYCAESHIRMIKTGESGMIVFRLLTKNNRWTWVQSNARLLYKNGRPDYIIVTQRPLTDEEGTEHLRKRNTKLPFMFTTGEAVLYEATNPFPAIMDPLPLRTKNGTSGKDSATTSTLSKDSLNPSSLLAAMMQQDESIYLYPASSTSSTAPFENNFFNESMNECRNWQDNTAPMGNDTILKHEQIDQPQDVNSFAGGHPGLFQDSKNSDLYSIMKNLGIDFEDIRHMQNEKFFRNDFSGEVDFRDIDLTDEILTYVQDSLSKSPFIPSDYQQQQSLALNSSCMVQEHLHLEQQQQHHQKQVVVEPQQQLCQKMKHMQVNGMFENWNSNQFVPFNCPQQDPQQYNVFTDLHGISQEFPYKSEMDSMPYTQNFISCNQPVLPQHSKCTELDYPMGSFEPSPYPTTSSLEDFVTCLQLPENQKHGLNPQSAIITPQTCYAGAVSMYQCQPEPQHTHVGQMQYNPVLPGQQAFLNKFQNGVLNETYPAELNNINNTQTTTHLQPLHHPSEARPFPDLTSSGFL

AhR = AhR (Homo sapiens, UniProt P35869); assay: Inhibition of AhR-mediated gene transcription (HEK-XRE 11.1 luciferase reporter, MeBIO induction); type: cell-based; conditions: read-out: AHR; HEK-XRE 11.1 cells, MeBIO 0.1 nM, luminescence after 24 hours; Table 1
Protocol: HEK cells line was transfected with an AhR-responsive firefly luciferase reporter gene X4-4.27 and the stable transfectants generated were again transfected with phRL-CMV (a Renilla luciferase expression vector; Promega) along with pBAsi-hU6 Pur DNA (a plasmid carrying the puromycin-resistant gene; TaKaRa, Shiga, Japan), and maintained in the presence of both hygromycin B and puromycin (2 mg/mL). One of the resultant clones was named HEK-XRE 11.1, and used in the reporter gene assays.
HEK-XRE 11.1 cells were plated in 384-well plates at a density of 25,000 cells in 50 uL volume per well. The induction of ARh pathway was done by addition of MeBIO at 0.1 nM concentration. ARh antagonist compounds were then added to seeded cells in serial dilutions (8 dilutions, 1:[…] down to 5 nM) in duplicate wells. Renilla expression was not used as internal control. On each plate, Compound 1001 and SR1 were added as dose control (8 dilutions, 1:3, 5 mM down to 2.5 nM for SR1 and 2 mM down to 1 nM for compound 1001). Luminescence activity was evaluated after 24 hours culture using Lumi-384-CellTiterGlo-Corning protocol. Dose-response curves were generated using nonlinear regression in Excel.

## Nc1c(C(=O)Nc2ccc(Cl)cc2)sc2ccc(C(F)(F)F)nc12
[1]
  EC1.5: 1 to 5 µM
AhR
  IC50: 50 to 500 nM

## Cc1ccc(NC(=O)c2sc3ccc(C(F)(F)F)nc3c2N)cc1
[1]
  EC1.5: >5 µM
AhR
  IC50: 50 to 500 nM

## Nc1c(C(=O)Nc2ccc(Br)cc2)sc2ccc(C(F)(F)F)nc12
[1]
  EC1.5: >5 µM
AhR
  IC50: 50 to 500 nM

## Nc1c(C(=O)Nc2cccnn2)sc2ncc(C(F)(F)F)cc12
[1]
  EC1.5: >5 µM
AhR
  IC50: < 50 nM

From patent publication US11696928B2, “Compounds and use thereof in the expansion of stem cells and/or progenitor cells” (UNIVERSITE DE MONTREAL, priority 2017, dated 2023)
